# Screens: PubChem BioAssay, National Center for Advancing Translational Sciences (NCATS)
# Shown are actives, neighbours in structure and some others; about 16% of the full set was active somewhere.
# DT40 TDP1 no CPT – qHTS for Inhibitors of human tyrosyl-DNA phosphodiesterase 1 (TDP1): qHTS in cells in absence of CPT. DT40 Tdp1-/- hTDP1 cells, no CPT, ATP luminescence, 48 h. Potency, µM (titrated, usually from 46.2 µM), without a hit: at the top dose activity change, negative = growth inhibition, most hits filed as inhibitors. 420,000 tested, 15% active; further: potency means the concentration at half of the fitted maximal effect; on the % scale 0 is the no-effect control and ±100 the full control effect; nearly all actives have a fitted effect of over 55% in size
#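 Chicken DT40 Tdp1-/- cells complemented with human TDP1, screened without camptothecin (DMSO vehicle only), 400 cells/well. Compounds pin-transferred, cells incubated at 37 °C for at least 48 hr. Growth read as ATP-dependent luminescence (CellTiter-Glo, 30 min at RT).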
# TDP1 cell CPT – growth inhibition of DT40 Tdp1-/-;hTDP1 cells with camptothecin (screen for TDP1 inhibitors); chicken DT40 Tdp1-/-;hTDP1 cells + 20 nM CPT, ATP luminescence, 48 h; Potency, µM (top dose mostly 46.2 µM), without a hit: top-dose activity change, negative = growth inhibition, most hits filed as inhibitors; 420,000 tested, 12% active; AID 686979; further: potency means the concentration at half of the fitted maximal effect; on the % scale 0 is the no-effect control and ±100 the full control effect; nearly all actives have a fitted effect of over 55% in size
#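 Cell growth measured by CellTiter-Glo luminescence after a minimum 48 h, 37 C compound exposure with 20 nM CPT in Tdp1-knockout DT40 cells stably expressing hTDP1, seeded 400/well; qHTS titration format.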
# miR-21 reporter – raises the signal of a miR-21 reporter | HeLa miR-21 FLuc reporter, luciferase, 48 h | Potency, µM (highest dose often 38.3 µM), inactives show at the highest dose reporter change, positive = more light | 340,000 tested, under 10 active | AID 2288; active = well fitted rising curve with a large enough effect; inconclusive = small, poorly fitted or top-dose-only effect; inactive = no such curve, though single readings can be large or run the other way;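 note: % of control where 0% means no effect; miR-21 action dims this reporter so a rising signal means less miR-21 action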
#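 HeLa cells endogenously expressing miR-21, stably carrying CMV-driven firefly luciferase with a downstream miR-21 binding site, 2000 cells/well. Titrations up to approximately 40 uM, 48 hours; luciferase luminescence read.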
# uPA generation – cell surface uPA generation inhibition; cell surface uPA generation assay, qHTS; Potency, µM (doses to about 38.3 µM), for the others: top-dose activity change, negative = inhibition, actives largely listed as inhibitors; 330,000 tested, 0.31% active; AID 540303; active means well fitted inhibition curve with a large enough effect; inconclusive means small, poorly fitted or top-dose-only effect; inactive means no such curve, though single readings can be large or run the other way; tested in mouse RAW 264.7 cells; further: potency means the concentration at half of the fitted maximal effect; on the % scale 0 is the no-effect control and ±100 the full control effect; nearly all actives have a fitted effect of over 55% in size
# TDP1 inh – blocks human tyrosyl-DNA phosphodiesterase 1. recombinant TDP1, AlphaScreen DNA substrate cleavage. Potency, µM (highest dose often 130 µM), for the others: at the highest dose activity change, negative = inhibition, usual class: inhibitors. 350,000 tested, 0.28% active. AID 485290; further: potency means the concentration at half of the fitted maximal effect; on the % scale 0 is the no-effect control and ±100 the full control effect; nearly all actives have a fitted effect of over 40% in size
#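 AlphaScreen read-out: signal falls as enzyme removes the 3' tyrosine-FITC from a 5'-biotinylated DNA oligo (15 nM, 5 min, RT). Enzyme was E. coli-made recombinant Tdp1 at 1 nM, exposed to compound for 15 min beforehand; beads 10 ug/ml, 10 min.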
# Numbers without * were called inactive; ? = inconclusive; / = no result given; [ ] = remark or other dose. Unless noted, the call rests on the fitted dose curve; in most records, active means well fitted curve in the direction sought with a large enough effect; inconclusive means small, poorly fitted or top-dose-only effect, or another doubt; inactive means no such curve, though single readings can be large; an effect the other way counts as inactive or inconclusive.
# Abbreviations: A = DT40 TDP1 no CPT; B = TDP1 cell CPT; C = miR-21 reporter; D = uPA generation; E = TDP1 inh
O=C(Nc1ccon1)c1cccn(Cc2ccccc2)c1=O
  A: ?; B: -11%; C: -4%; D: /; E: 0%

Cc1nn(Cc2ccccc2)c(C)c1C(=O)OCC(=O)NC1CCS(=O)(=O)C1 (stereo unspecified)
  A: -17%; B: 12%; C: -10%; D: 10%; E: -1%

C#CCOCCOCCOCCNc1nc(N2CCN(C(=O)CCCCCCCCCCNC(=O)[C@H](CCCCN)n3cc(C[C@@H](C)CC)nn3)CC2)nc(N2CCN(C(=O)CCCCCCCCCCNC(=O)[C@H](CCCCN)n3cc(C[C@@H](C)CC)nn3)CC2)n1
  A: 9.2µM*; B: 8.2µM*; C: /; D: ?; E: /

C#CCOCCOCCOCCNc1nc(N2CCN(C(=O)CCCCCCCCCCNC(=O)Cn3cc(C[C@@H](C)O)nn3)CC2)nc(N2CCN(C(=O)CCCCCCCCCCNC(=O)Cn3cc(C[C@@H](C)O)nn3)CC2)n1
  A: 9.2µM*; B: 6.5µM*; C: /; D: ?; E: 0%

C#CCOCCOCCOCCNc1nc(N2CCN(C(=O)CCCCCCCCCCNC(=O)Cn3cc(C[C@@H](C)O)nn3)CC2)nc(N2CCN(C(=O)CCCCCCCCCCNC(=O)[C@H](CCCCN)n3cc(C[C@@H](C)CC)nn3)CC2)n1
  A: 21µM*; B: 16µM*; C: /; D: ?; E: /

O=[As]O[As]=O (stereo unspecified)
  A: /; B: /; C: /; D: /; E: 2%

O=C1OC(c2ccc(O)c(S(=O)(=O)O)c2)(c2ccc(O)c(S(=O)(=O)O)c2)c2c(Br)c(Br)c(Br)c(Br)c21
  A: 6%; B: 8%; C: /; D: /; E: -9%

CC1=C2CC3C(CC=C4C[C@@H](O)CC[C@@]43C)[C@@H]2CC[C@]12O[C@@H]1C[C@H](C)CN[C@H]1[C@H]2C (stereo partly specified)
  A: -4%; B: 12%; C: /; D: /; E: 8%

O=C(CSCC(=O)NN=Cc1ccccc1O)NN=Cc1ccccc1O
  A: 5.8µM*; B: 5.8µM*; C: /; D: ?; E: /

O=C(CSC1c2ccccc2-c2ccccc21)N/N=C/c1ccccc1C(=O)O
  A: ?; B: 3%; C: -6%; D: -1%; E: 2%

Cc1cc([N+](=O)[O-])nn1CC(=O)N/N=C/c1ccccc1O
  A: 18µM*; B: 8.2µM*; C: -1%; D: ?; E: 10%

c1ccc(-c2[nH]c[n+](CC3CO3)c2-c2ccccc2)cc1 (stereo unspecified)
  A: /; B: /; C: -4%; D: /; E: 8%

COC(=O)C1=C(c2cc3ccccc3s2)C[C@@H]2CC[C@H]1N2C(=O)NC1CCCCC1
  A: ?; B: 18µM*; C: /; D: ?; E: /

COC(=O)C1=C(c2cc3ccccc3s2)C[C@@H]2CC[C@H]1N2C(=O)N1CCCCC1
  A: 6.5µM*; B: 2.9µM*; C: /; D: ?; E: /

COC(=O)C1=C(c2cc3ccccc3s2)C[C@@H]2CC[C@H]1N2C(=O)N1CCC(O)CC1
  A: 23µM*; B: 15µM*; C: /; D: 17%; E: /

COC(=O)C1=C(c2cccc(OC)c2OC)C[C@@H]2CC[C@H]1N2C(=O)N1CCC(O)CC1
  A: 0%; B: 7%; C: /; D: 0%; E: /

CCOC1=C(N2CC2)C(=O)C(OCC)=C(N2CC2)C1=O
  A: -22%; B: -3%; C: /; D: 0%; E: /

COc1cc2oc(=O)c(CC(=O)N3C[C@H]4C[C@@H](C3)c3cccc(=O)n3C4)c(C)c2cc1Cl
  A: -10%; B: -2%; C: /; D: 9%; E: /

CCCOc1ccc(C(=O)Nc2ccc(-c3cc4ccccc4oc3=O)c(C)c2)cc1
  A: 5.2µM*; B: 10µM*; C: 17%; D: /; E: -2%[2.28 µM]

O=C(NCCc1ccccc1)[C@@H]1CC=C[C@@H]2CCN(Cc3ccc(Cl)c(Cl)c3)C(=O)[C@@H]21
  A: 10µM*; B: 4µM*; C: /; D: ?; E: /

# Among those listed so far, these have a halogen:
# Abbreviations: A = DT40 TDP1 no CPT; B = TDP1 cell CPT; C = miR-21 reporter; D = uPA generation; E = TDP1 inh
O=C1OC(c2ccc(O)c(S(=O)(=O)O)c2)(c2ccc(O)c(S(=O)(=O)O)c2)c2c(Br)c(Br)c(Br)c(Br)c21
  A: 6%; B: 8%; C: /; D: /; E: -9%

COc1cc2oc(=O)c(CC(=O)N3C[C@H]4C[C@@H](C3)c3cccc(=O)n3C4)c(C)c2cc1Cl
  A: -10%; B: -2%; C: /; D: 9%; E: /

O=C(NCCc1ccccc1)[C@@H]1CC=C[C@@H]2CCN(Cc3ccc(Cl)c(Cl)c3)C(=O)[C@@H]21
  A: 10µM*; B: 4µM*; C: /; D: ?; E: /

# Next section
# Abbreviations: A = DT40 TDP1 no CPT; B = TDP1 cell CPT; C = miR-21 reporter; D = uPA generation; E = TDP1 inh
O=C(Cc1ccc(Cl)c(Cl)c1)N1CCCCC1CN1CCCC1 (stereo unspecified)
  A: -16%; B: -36%; C: /; D: /; E: 10%[56.1 µM]

CNC1C2CN3CCC(O2)C13 (stereo unspecified)
  A: -3%; B: 2%; C: /; D: /; E: 11%[56.1 µM]

O=[N+]([O-])c1ccc(N(CCO)CCO)c2c1no[n+]2[O-]
  A: 0.16µM*; B: 0.092µM*; C: /; D: /; E: /

CN1CCN(c2ccc([N+](=O)[O-])c3no[n+]([O-])c23)CC1
  A: 0.16µM*; B: 0.18µM*; C: ?; D: -18%; E: /

C=CCBr
  A: /; B: /; C: /; D: /; E: 13%

Cc1cc(C(=O)OCC(=O)Nc2ccc(F)cc2)c(C)n1C1CC1
  A: -11%; B: -1%; C: /; D: 6%; E: 7%

NC(=O)c1c(NC(=O)c2ccc(S(=O)(=O)N(CCCl)CCCl)cc2)sc2c1CCCCC2
  A: 15µM*; B: 10µM*; C: 1%; D: 0%; E: 1%

CCN1CCN(c2cc(N3CCCC3)c([N+](=O)[O-])cc2F)CC1
  A: 29µM*; B: ?; C: 2%; D: 3%; E: 0%

CN1CCN(c2cc(N3CCCCCC3)c(F)cc2[N+](=O)[O-])CC1
  A: 29µM*; B: ?; C: 14%; D: -3%; E: 7%

O=[N+]([O-])c1cc(F)c(N2CCCC2)cc1N1CCNCC1
  A: /; B: /; C: 5%; D: /; E: -1%

Cc1[nH]c2ccc(OCc3ccccc3)cc2c1CCN
  A: 13µM*; B: 15µM*; C: -4%; D: -10%; E: /

Clc1ccc(-c2nc3ccc(Cl)cn3c2CN2CCCCC2)cc1
  A: 16µM*; B: ?; C: -16%; D: 4%; E: /

Clc1ccc(-c2nc3ccc(Cl)cn3c2CN2CCOCC2)cc1
  A: 23µM*; B: ?; C: 3%; D: 6%; E: 6%

O=c1c2cc(Cl)cc(Cl)c2nc(CN2CCOCC2)n1-c1ccccc1F
  A: -20%; B: ?; C: -8%; D: -12%; E: 3%

CCCN(CCC)C(=O)Cc1c(-c2ccc(Cl)cc2)nc2ccc(Cl)cn12
  A: ?; B: -8%; C: /; D: /; E: /

[O-][n+]1onc2c1CCC1N(O)CCC21O (stereo unspecified)
  A: 17%; B: -1%; C: -4%; D: /; E: -9%

CCOc1ccc(-c2cc(C)[n+](CCN3CCOCC3)c(-c3ccc(OCC)cc3)c2)cc1
  A: 1.3µM*; B: 1.5µM*; C: ?; D: -1%; E: -3%

COc1ccc(S(=O)(=O)N2CCOCC2)cc1NC(=O)COC(=O)Cc1ccccc1
  A: 26%; B: -1%; C: /; D: ?; E: 0%

Cc1cc(Br)ccc1NC(=O)CN(C)C(=O)C1CCN(c2ncnc3sc(C)c(C)c23)CC1
  A: 21µM*; B: ?; C: /; D: ?; E: /

Cc1sc2ncnc(SCC(=O)Nc3ccc(S(=O)(=O)N4CCOCC4)cc3)c2c1C
  A: 29µM*; B: 23µM*; C: /; D: 1%; E: 0%

Cc1sc2ncnc(N3CCN(S(=O)(=O)c4ccc(Br)cc4)CC3)c2c1C
  A: 12µM*; B: 13µM*; C: /; D: 17%; E: /

CC/C=C\C/C=C\C/C=C\C/C=C\C/C=C\CCCC(=O)NC(C)C(=O)O (stereo unspecified)
  A: /; B: /; C: /; D: /; E: 4%

C[C@@H]1C[C@@H]2[C@H]([C@H]3C=C(COC(=O)c4ccccc4)[C@@H](O)[C@]4(O)[C@@H](O)C(OC(=O)c5ccccc5)=C[C@@]14C3=O)C2(C)C
  A: /; B: /; C: /; D: /; E: 9%

CCOC(=O)C1(c2ccccc2)CCN(CCC(C#N)(c2ccccc2)c2ccccc2)CC1
  A: 6.5µM*; B: 13µM*; C: /; D: ?; E: /
